Measured values reported in patent US12339285B2, “Method for estimating therapeutic efficacy” (Konica Minolta, Inc., priority 2017, dated 2025).

Key:
[1] = system: breast cancer cells of patients transplanted in SCID mice; assay: Tumor size in PDX mice transplanted with breast cancer cells, trastuzumab; format: in vivo; conditions: PDX mice corresponding to breast cancer patient A; trastuzumab 15 mg/kg tail i.v. once every 4 days, 4 times
Protocol: Each of breast cancer tissues of five breast cancer patients (A to E) was subjected to exhaustive gene analysis, and biomarkers were identified on the basis of obtained genetic mutation information. The identified biomarkers (specific biomarkers) were HER2 and ER. […] The volume of tumor was measured before and after administration, and a tissue section (tumor tissue) was collected from each of the killed mice at each time point before initial administration and after 1 week, 2 weeks, 3 weeks, and 4 weeks from initial administration. Each of the collected tissue sections was subjected to formalin fixation and paraffin embedding according to conventional methods, and was further sliced to prepare two sample slides per mouse killed at each time point.

ER = assay: PID fluorescent immunostaining of ER in tumor tissue of PDX mice given trastuzumab; format: in vivo, human; conditions: PDX (SCID) mice, trastuzumab 15 mg/kg tail i.v. once every 4 days, 4 times

trastuzumab
size of tumor [1]: reduced
PID score (ER) (ER; breast cancer patient A, 1 week after administration): 320
PID score (ER) (ER; breast cancer patient A, 3 weeks after administration): 180
PID score (ER) (ER; breast cancer patient A, 4 weeks after administration): 180
PID score (ER) (ER; breast cancer patient B, 1 week after administration): 440
PID score (ER) (ER; breast cancer patient B, 2 weeks after administration): 400
PID score (ER) (ER; breast cancer patient B, 3 weeks after administration): 250
PID score (ER) (ER; breast cancer patient C, 1 week after administration): 320
PID score (ER) (ER; breast cancer patient C, 4 weeks after administration): 150
PID score (ER) (ER; breast cancer patient D, 1 week after administration): 570
PID score (ER) (ER; breast cancer patient D, 2 weeks after administration): 350
PID score (ER) (ER; breast cancer patient E, 1 week after administration): 390
PID score (ER) (ER; breast cancer patient E, 2 weeks after administration): 390
PID score (ER) (ER; breast cancer patient E, 3 weeks after administration): 390
PID score (ER) (ER; breast cancer patient E, 4 weeks after administration): 350
